Test results taken from article PMC12366246.

How the values were obtained:
[1] = target: T1, peg4‐KLVFF peptide conjugate covalently bound to graphene oxide (GO@peg4‐KLVFF); assay: electrical (resistive) biosensor, I–V curves; as a1, but Aβ42 solution aged 40 days at 4 °C to induce aggregation, initial concentration 9 µM
T1 sequence: KLVFF

[2] = target: T1, peg4‐KLVFF peptide conjugate covalently bound to graphene oxide (GO@peg4‐KLVFF); assay: electrical (resistive) biosensor, I–V curves; as a1, but 4‐months‐aged Aβ42 centrifuged (10 000 rpm, 3 min, 25 °C) through a 5 kDa cut‐off septum, solution enriched with monomers; triplicate devices, mean ΔR/R0
[3] = target: T1, peg4‐KLVFF peptide conjugate covalently bound to graphene oxide (GO@peg4‐KLVFF); assay: electrical (resistive) biosensor, I–V curves; peg4‐KLVFF held on graphene oxide between Pt/Ti electrodes; 1 µL of freshly prepared analyte peptide at 9 µM in water/HFIP 4:1, pH 5.5, left 5 min, washed in deionized water, read on dried samples; ΔR/R0 at 2 V

ΔR/R0 [1]: 0.4
ΔR/R0 [2]: 0.6
ΔR/R0 [3]: 0.5
Substance: Aβ42 native peptide (from UniProt P05067 672-713) (peptide; peg4 spacer (15‐amino‐7,7,10,13‐tetraoxapentadecanoic acid) at the N‐terminus; covalently conjugated with graphene oxide by EDC/NHS (carboxyl group of GO, amino group of the peptide); other documents disagree on this pair)
